From US20220267277A1, “DOPAMINE RECEPTOR D1 AGONISTS AND METHODS OF USE” (Sanford Burnham Prebys Medical Discovery Institute, priority 2019, published 2022)

By UniProt entry, the sequences of proteins in these tests, tags left out.
UniProt P21728, whole entry: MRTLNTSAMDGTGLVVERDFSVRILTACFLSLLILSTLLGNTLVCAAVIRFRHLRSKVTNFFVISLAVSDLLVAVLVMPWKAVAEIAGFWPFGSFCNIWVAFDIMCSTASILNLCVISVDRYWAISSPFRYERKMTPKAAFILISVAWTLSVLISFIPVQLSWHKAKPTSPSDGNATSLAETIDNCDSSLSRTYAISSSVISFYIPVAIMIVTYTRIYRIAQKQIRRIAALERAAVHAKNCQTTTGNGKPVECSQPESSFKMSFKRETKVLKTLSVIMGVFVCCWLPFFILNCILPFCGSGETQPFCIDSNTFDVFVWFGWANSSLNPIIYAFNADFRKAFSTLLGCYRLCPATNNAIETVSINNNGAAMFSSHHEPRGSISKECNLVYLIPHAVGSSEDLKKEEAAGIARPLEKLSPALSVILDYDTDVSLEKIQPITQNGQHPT

Key:
DR1 = DR1 (Homo sapiens, UniProt P21728); assay: DR1 agonism EC50 (Example B-1, Table 4); format: cell-based; settings: read-out: DR1 EC50
Protocol: cAMP Assay: IPF patient derived fibroblasts are plated in EMEM containing 10% FBS overnight. […] Twenty minutes prior to cell lysis the media is removed and cells are treated with “induction buffer” containing nonselective phosphodiesterase inhibitors and the indicated concentration of compound(s). Luminescence is measured on a Flexstation 3 (Molecular Devices) plate reader.
(§1) Example B-1: Enzyme Assay of Inhibition of YAP/TAZ and DR1

YAP/TAZ = assay: Inhibition of YAP/TAZ (Example B-1, Table 4); settings: read-out: YAP/TAZ IC50
Source text: as §1

SMILES: Oc1ccc(C2CNCc3ncccc32)cc1O (centres unmarked)
- EC50 (DR1): < 1000 nM
- IC50 (YAP/TAZ): 1000 to 20000 nM
